The record followed here is US20060199856A1, “Novel compounds as anti-inflammatory, immunomodulatory and anti-proliferatory agents” (4 SC AG, priority 2001, published 2006).

Chains of the proteins cited; added tags and fusions are not shown.
UniProt Q63707, whole entry: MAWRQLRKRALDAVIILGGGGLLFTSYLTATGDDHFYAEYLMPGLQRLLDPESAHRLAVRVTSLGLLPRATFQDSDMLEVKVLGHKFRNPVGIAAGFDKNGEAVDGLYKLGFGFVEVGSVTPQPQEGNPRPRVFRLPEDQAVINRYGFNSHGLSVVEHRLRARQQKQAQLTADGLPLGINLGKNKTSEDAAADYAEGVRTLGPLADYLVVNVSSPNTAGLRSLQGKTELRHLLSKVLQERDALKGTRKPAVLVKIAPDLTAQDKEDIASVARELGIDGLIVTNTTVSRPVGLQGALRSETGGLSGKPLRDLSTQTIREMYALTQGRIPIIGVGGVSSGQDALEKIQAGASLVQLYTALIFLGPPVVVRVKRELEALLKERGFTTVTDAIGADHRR

In this experiment the target is DHODH (Rattus norvegicus, UniProt Q63707). Nature of the experiment: Inhibition assay of DHODH activity (rat enzyme, head printed 'rate'). The format is biochemical. The conditions noted are these: read-out: rate IC50-Value; class symbols (in nM).

Each structure is given as a SMILES string.

For `COc1ccccc1-c1cc(F)c(NC(=O)C2=C(C(=O)O)COC2)c(F)c1`, the half-inhibitory concentration (IC50) (usually the concentration needed to halve the response being measured) is under 800 nM.
